This is an account of results in patent publication US9566342B2, “Compounds for treatment of heart failure” (SOLVOTRIN INNOVATIONS LIMITED, priority 2010, dated 2017).

In one assay the test system is MMP-9. Kind of assay: PMA stimulated fibrosarcoma cell model (HT1080 cells), MMP-9. Type of assay: cell-based. The settings on record: 100 micromolar.
A further assay has as its system MMP-2. The assay can be described thus: PMA stimulated breast cancer cell model (HT1080 cells), pro-MMP-2 / MMP-2. Type of assay: cell-based. The settings on record: 100 micromolar.

Consider `C[C@H]1c2cccc(O)c2C(=O)C2=C(O)[C@]3(O)C(=O)C(C(=O)NCN(CCO[N+](=O)[O-])CCO[N+](=O)[O-])=C(O)[C@@H](N(C)C)[C@@H]3[C@@H](O)[C@@H]21` [SI1004, amido-N—[N,N-diethylnitrate-aminomethyl]-α-6-deoxy-5-oxytetracycline], for which the MMP-9 production result in the assay on MMP-9 is “reduce MMP-9 production”. Also, the pro-MMP-2 production entry with MMP-2 was “reduce pro-MMP-2 production”.
The like results for “Amido-N-[3-(Nitrooxymethyl)Piperidinomethyl]-α-6-Deoxy-5-Oxytetracycline” were, in that order, “reduce MMP-9 production” and “to a lesser extent”.
